The entries are a selection whose mix differs from that of the whole data set. Some structures show a salt or complex split into parts, the way the source records it. Calls of active or inactive are those of the source.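 How the source made its calls: active means activation above the run's mean compound activation plus 3 SD (cut at about 16% in these data); inactive means the rest.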

Amino acid sequences for entries named in this document (tags omitted).
UniProt P11229, whole entry: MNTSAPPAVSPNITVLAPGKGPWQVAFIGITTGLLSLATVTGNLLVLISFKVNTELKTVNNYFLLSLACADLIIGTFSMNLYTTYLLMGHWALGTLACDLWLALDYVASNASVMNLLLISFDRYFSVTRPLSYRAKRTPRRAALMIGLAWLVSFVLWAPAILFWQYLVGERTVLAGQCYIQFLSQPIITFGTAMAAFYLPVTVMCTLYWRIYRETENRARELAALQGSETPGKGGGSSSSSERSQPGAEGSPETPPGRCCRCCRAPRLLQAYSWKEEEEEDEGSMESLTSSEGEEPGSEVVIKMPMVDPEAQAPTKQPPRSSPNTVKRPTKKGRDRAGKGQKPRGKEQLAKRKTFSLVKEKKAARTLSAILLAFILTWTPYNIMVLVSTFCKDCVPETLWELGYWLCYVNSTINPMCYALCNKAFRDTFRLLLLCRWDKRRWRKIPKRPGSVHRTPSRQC

In this experiment the target is Muscarinic acetylcholine receptor M1 (Homo sapiens) (UniProt P11229). Kind of experiment: CHRM1 activation via calcium signal – Fluo-8 calcium fluorescence, CHO-K1 cells, HTS, primary screen (AID 588814).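 Further: peak over basal fluorescence ratio within a 140 s kinetic read after compound addition.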 The settings on record: CHO-K1 hM1, Fluo-8 calcium fluorescence, agonist mode; at 3 µM; active compounds read high; 0% DMSO, 100% acetylcholine EC100.
Regarding `Cc1ccccc1NP(C)(=O)Nc1ccccc1C`, the activation is inactive: -3.56%.
Regarding `CP(=O)(Nc1ccc2c(c1)OCCO2)Oc1ccccc1` (centres undefined), the activation is inactive: -2.74%.
In the case of `CCOP(C)(=S)SCC(=O)NC(C)(CC)C(=O)O` (centres undefined), the activation is inactive: -1.58%.
With `CP(=O)(Nc1ccc(SC(F)(F)F)cc1)Oc1ccc(F)cc1` (centres undefined) the figure was inactive: -2.43%; with `Cc1c(C(c2ccc3c(c2)OCO3)c2c(C)n(C)n(-c3ccccc3)c2=O)c(=O)n(-c2ccccc2)n1C.O=[N+]([O-])c1cc([N+](=O)[O-])c(O)c([N+](=O)[O-])c1`, inactive: -3.23%.
As for `Cc1cc(-c2cccc3ccccc23)c(C)cn1.O=[N+]([O-])c1cc([N+](=O)[O-])c(O)c([N+](=O)[O-])c1`, the activation was inactive: -4.36%.
As for `O=[N+]([O-])c1cc([N+](=O)[O-])c(NCC2CCS(=O)(=O)C2)c([N+](=O)[O-])c1` (centres undefined), the activation is inactive: -6.06%.
In the case of `O=[N+]([O-])c1ccc(OP2(=O)COCCO2)cc1` (centres undefined), the activation is inactive: -4.52%.
For `COc1ccc(NP(C)(=O)Oc2ccccc2OC)cc1` (centres undefined), the activation was inactive: -1.84%.
Regarding `CN(C)CCOC(=O)C(O)(c1ccccc1)C1CCCCC1` (centres undefined), the activation is inactive: -4.78%.
For the molecule `CN(C)C1(CNC(=O)c2ccc(Cl)c(S(N)(=O)=O)c2)CCCCC1`, the activation is inactive: -5.62%.
Take `COc1ccc(OP(C)(=O)Nc2cccc(Br)c2)cc1` (centres undefined): the activation was inactive: -3.43%.
For `O=[N+]([O-])c1cc([N+](=O)[O-])c(OC2CCCCC2O)c([N+](=O)[O-])c1` (centres undefined), the activation is inactive: -2.32%.
For the molecule `CCCCCOc1ccc(NP(C)(=O)Oc2ccc(Cl)cc2Cl)cc1` (centres undefined), the activation was inactive: -2.2%.
As for `CP(=O)(Nc1ccccc1)Oc1ccc(F)cc1` (centres undefined), the activation is inactive: -3.95%.
`CCN(CC)CCCOC(=O)C(O)(c1ccccc1)C1CCCCC1` (centres undefined): the activation is inactive: -3.86%.
For `Cc1c([N+](=O)[O-])cc([N+](=O)[O-])c(Br)c1[N+](=O)[O-]`, the activation was inactive: -2.81%.
As for `COc1ccc(OP(C)(=O)Nc2ccc(SC(F)(F)F)cc2)cc1` (centres undefined), the activation was inactive: -4.71%.
As for `CCOC(=O)c1ccc(NP(C)(=O)Oc2ccc(F)cc2)cc1` (centres undefined), the figure is inactive: -3.08%.
With `COc1ccc2c(c1O)-c1c(O)c(OC)cc3c1[C@H](C2)[N+](C)(C)CC3.O=[N+]([O-])c1cc([N+](=O)[O-])c([O-])c([N+](=O)[O-])c1[O-]` the figure was inactive: -0.21%.
For `O=C(OCCN1CCN(CCOCc2ccccc2)CC1)C(O)(c1ccccc1)c1ccccc1`, the activation is inactive: -8.53%.
For `O=C(OC1CN2CCC1CC2)c1ccc([N+](=O)[O-])cc1` (centres undefined), the activation is inactive: -7.57%.
As for `CC(C)c1ccc(OP(C)(=O)Nc2ccc(SC(F)(F)F)cc2)cc1` (centres undefined), the activation was inactive: -13.3%.
Take `CP(=O)(Nc1ccccc1F)Oc1ccccc1` (centres undefined): the activation was inactive: -3.64%.
With `O=[N+]([O-])c1cc([N+](=O)[O-])c(Nc2ccc(Cl)cc2)c([N+](=O)[O-])c1` the figure was inactive: 3.06%; with `CCc1ccc(OP(C)(=O)O)cc1`, inactive: -0.42%.
As for `COc1ccccc1OP(C)(=O)Nc1ccc(C)cc1C` (centres undefined), the activation is inactive: -0.37%.
`CP(=O)(Nc1ccccn1)Oc1ccccc1` (centres undefined): the activation is inactive: -0.58%.
Turning to `Cc1c(NP(C)(=O)Oc2ccc(C(C)C)cc2)c(=O)n(-c2ccccc2)n1C` (centres undefined), the activation is inactive: -2.65%.
In the case of `O=[N+]([O-])c1cc([N+](=O)[O-])c(Nc2ccccn2)c([N+](=O)[O-])c1`, the activation is inactive: -2.03%.
On to `CN(C)CCOC(=O)C(O)(c1ccccc1)C1CCCC1` (centres undefined), for which the activation is inactive: -14%.
With `COc1ccc(OP(C)(=O)Nc2ccccn2)cc1` (centres undefined) the figure was inactive: -5.01%; with `COc1ccccc1OP(C)(=O)Nc1ccc(Br)cc1` (centres undefined), inactive: -2.9%.
`CP(=O)(Nc1ccc(Cl)cc1Cl)Oc1ccccc1` (centres undefined): the activation was inactive: -1.94%.
With `CCCCCCCCCCCCCCCC1C[N+](C)(C)CCOP(C)(=O)O1` (centres undefined) the figure was inactive: -1.88%.
With `CP(=O)(OCCOc1ccccc1)OCCOc1ccccc1` the figure was inactive: -0.84%; with `COc1ccc(OP(C)(=O)Nc2ccccc2Br)cc1` (centres undefined), inactive: -7.74%; with `COc1ccccc1OP(C)(=O)Nc1ccc(C)c(C)c1` (centres undefined), inactive: -2.59%.
With `Cc1cc(C)cc(OP(C)(=O)Nc2cccc(C(F)(F)F)c2)c1` (centres undefined), the activation was inactive: -8.97%.
In the case of `O=C1C(O)=C([N+](=O)[O-])C(=O)C(O)=C1[N+](=O)[O-]`, the activation was inactive: -3.77%.
As for `CP(=O)(OC12CC3CC(CC(C3)C1)C2)OC12CC3CC(CC(C3)C1)C2`, the figure is inactive: 1.73%; as for `CCOC(=O)c1ccc(NP(C)(=O)Oc2ccc(Cl)cc2)cc1` (centres undefined), inactive: -5.35%.
As to `CN(C)C(=O)c1c([N+](=O)[O-])cc([N+](=O)[O-])cc1[N+](=O)[O-]`, the activation was inactive: -1.77%.
With `CP(=O)(Nc1ccc(Cl)cc1)Oc1ccc(F)cc1` (centres undefined) the figure was inactive: -2.69%.
For `COc1ccccc1OP(C)(=O)Nc1ccccc1Br` (centres undefined), the activation was inactive: -5.72%.
For `CC(C)(C)c1ccc(OP(C)(=O)O)cc1`, the activation was inactive: -2.13%.
Turning to `CCc1ccc(OP(C)(=O)Nc2cccnc2)cc1` (centres undefined), the activation is inactive: -5.04%.
Turning to `CP(=O)(Oc1ccccc1)N1CCOC1=O` (centres undefined), the activation is inactive: -0.97%.
As for `O=C(OCCCN1CCCC1)C(O)(c1ccccc1)C1CCCCC1` (centres undefined), the figure is inactive: -6.34%.
For the molecule `COc1ccccc1OP(C)(=O)Nc1c(C)n(C)n(-c2ccccc2)c1=O` (centres undefined), the activation was inactive: -2.2%.
For `COc1ccc(OP(C)(=O)Nc2ccc(Br)cc2)cc1` (centres undefined), the activation is inactive: -7.64%.
As for `CCN(CC)CC(O)COC(=O)C(O)(c1ccccc1)C1CCCCC1` (centres undefined), the figure is inactive: -3.49%.
As to `CP(=O)(Nc1ccccn1)Oc1ccc(Cl)cc1` (centres undefined), the activation was inactive: -5.33%.
Turning to `CCOP(C)(=S)SCC(=O)NC(C)C(=O)O` (centres undefined), the activation was inactive: -2.07%.
Take `CCOC(=O)c1ccc(NP(C)(=O)Oc2ccc(OC)cc2)cc1` (centres undefined): the activation was inactive: -6.51%.
Consider `O=[N+]([O-])c1cc([N+](=O)[O-])c(O)c([N+](=O)[O-])c1.c1ccc(Oc2ccncc2)cc1`, for which the activation was inactive: -1.62%.
For `Cc1cc(C)cc(OP(C)(=O)Nc2ccc(SC(F)(F)F)cc2)c1` (centres undefined), the activation was inactive: -5.03%.
As for `CP(=O)(NC(=O)Nc1ccccc1)Oc1ccccc1` (centres undefined), the figure is inactive: 12.4%; as for `CCc1ccc(OP(C)(=O)N2CCN(c3ccc([N+](=O)[O-])cc3)CC2)cc1` (centres undefined), inactive: -0.51%.

The values above are taken from PubChem BioAssay AID588814 (The Scripps Research Institute Molecular Screening Center, 2011).
